Experimental data taken from ChEMBL document CHEMBL3112560 (Bioorg Med Chem Lett, 2014).

Organism: Rattus norvegicus
Test: Inhibition of VGLUT in rat brain assessed as [3H]-L-Glu uptake into synaptic vesicles at 250 uM relative to control
Format: tissue-based

SMILES: CC(=O)[C@H]1CC[C@H]2[C@@H]3CC[C@@H]4C[C@H](O)CC[C@]4(C)[C@H]3CC[C@]12C
- inhibition: 100%
